This is an account of results in US20240166626A1, “Compounds and Methods for Preventing, Treating, or Ameliorating Airway Disease” (THOMAS JEFFERSON UNIVERSITY, priority 2021, published 2024).

Assay [1] addresses T1, β2AR (Homo sapiens, UniProt P07550). Kind of assay: GLOSENSOR cAMP production assay (bias = GloSensor IC50:PathHunter IC50). The following applies: GloSensor IC50:PathHunter IC50 ratio. (In general: Cyclic AMP is a second messenger, typically raised through Gs and lowered through Gi signalling.)
The target in assay [2] is T1, β2AR. Kind of assay: PATHHUNTER high throughput assay for β-arrestin recruitment to β2AR. (Arrestin recruitment assays detect the binding of arrestin to an activated receptor.)
[3] abbreviates: read-out: IC50 Arrestin, Table 3, ISO-promoted β-arrestin2 recruitment, scaffold drawing 254, R1/R3 substituents.
Setting [4] is: read-out: IC50 Arrestin, Table 2, ISO-promoted β-arrestin2 recruitment, scaffold drawing 253, R1/R2 substituents.

Like-named read-outs stand apart in the source and are kept apart here.

As to `Clc1cc(Cl)cc(Nc2nc(NC3CCCCCC3)c3ccccc3n2)c1`, the Arrestin fold bias at β2AR [1] (Table 3) is reported as more than 20. Besides, the IC50 on β2AR [2] (setting [3]) was 5 µM.
In the same order, the values of `Nc1nc(Nc2cc(Cl)cc(Cl)c2)nc2ccccc12` are “No” and 10 µM.
Consider `Clc1cc(Cl)cc(Nc2nc(NC3CCCCC3)c3cc(Cl)ccc3n2)c1`, for which the Arrestin fold bias at β2AR [1] (Table 2) was more than 20. Besides, the IC50 at β2AR [2] (setting [4]) stood at 8 µM.
In the case of `OCCc1ccc(Nc2nc(Nc3cc(Cl)cc(Cl)c3)nc3ccccc23)cc1`, the Arrestin fold bias entry at β2AR [1] (Table 3) is recorded as “No”. Moreover, the IC50 at β2AR [2] (setting [3]) came out at 18 µM.
On to `Cc1cccc2c(NC3CCCCC3)nc(Nc3cc(Cl)cc(Cl)c3)nc12`, for which, at β2AR [1] (Table 2), the Arrestin fold bias entry is listed as “No”. The IC50 on β2AR [2] (setting [4]) is more than 100 µM.
Take `CN(C)CCCNc1nc(Nc2cc(Cl)cc(Cl)c2)nc2ccccc12`: the Arrestin fold bias on β2AR [1] (Table 3) was more than 3. For the same compound, the IC50 at β2AR [2] (setting [3]) came to 26 µM.
Consider `Cc1ccc2c(NC3CCCCC3)nc(Nc3cc(Cl)cc(Cl)c3)nc2c1`, for which, at β2AR [1] (Table 2), the Arrestin fold bias is listed as more than 10. Also, at β2AR [2] (setting [4]), the IC50 was 10 µM.
With `Cc1ccc2nc(Nc3cc(Cl)cc(Cl)c3)nc(NC3CCCCC3)c2c1`, on β2AR [1] (Table 2), the Arrestin fold bias is reported as more than 20. Further, the IC50 at β2AR [2] (setting [4]) was 3 µM.
Turning to `Clc1cc(Cl)cc(Nc2nc(NCCc3ccccc3)c3ccccc3n2)c1`, at β2AR [1] (Table 3), the Arrestin fold bias is approximately 3. For the same compound, the IC50 at β2AR [2] (setting [3]) was determined as 7 µM.
For `CCNc1nc(Nc2cc(Cl)cc(Cl)c2)nc2ccccc12` the same measures were “No” and 13 µM.
As for `CCCCCNc1nc(Nc2cc(Cl)cc(Cl)c2)nc2ccccc12`, the Arrestin fold bias on β2AR [1] (Table 3) is listed as approximately 3. Further, the IC50 on β2AR [2] (setting [3]) was 23 µM.
`NCCCNc1nc(Nc2cc(Cl)cc(Cl)c2)nc2ccccc12`: the Arrestin fold bias result on β2AR [1] (Table 3) was “No”. The IC50 at β2AR [2] (setting [3]) amounted to 25 µM.
